Data on one compound can be found in ChEMBL document CHEMBL1949581, “Anion inhibition studies of an α-carbonic anhydrase from the living fossil Astrosclera willeyana” (Bioorg Med Chem Lett, 2012).

Protein sequences, listed by entry. Tags and fused reporters are not part of them. Residues count along the entry.
UniProt A6YCJ1, 23-292 limits assumed: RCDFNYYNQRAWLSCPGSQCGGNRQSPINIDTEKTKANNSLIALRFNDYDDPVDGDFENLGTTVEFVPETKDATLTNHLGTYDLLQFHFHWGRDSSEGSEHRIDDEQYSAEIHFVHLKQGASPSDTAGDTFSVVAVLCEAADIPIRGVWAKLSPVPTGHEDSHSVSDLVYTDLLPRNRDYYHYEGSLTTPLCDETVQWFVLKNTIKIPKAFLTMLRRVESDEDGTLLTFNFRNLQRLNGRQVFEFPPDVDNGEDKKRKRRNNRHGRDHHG

The target of this test is Astrosclerin-3 (Astrosclera willeyana, UniProt A6YCJ1). Briefly: Inhibition of Astrosclera willeyana recombinant GST-tagged astrosclerin 3 expressed in Escherichia coli BL21-DE3-RIPL cells preincubated for 15 mins measured for 10 to 100 secs by stopped flow CO2 hydration assay.

Each structure is given as a SMILES string.

Take `O=[As](O)(O)c1ccccc1`: the inhibition constant (Ki) (as a rule, the dissociation constant of the complex between target and ligand, obtained from inhibition or displacement) worked out at 72 µM.
